One may read the Kd as the free concentration of one partner at which half of the binding sites on the other are occupied at equilibrium, for simple one-to-one binding. Read a high Kd as lower affinity.

The assay addresses T1, Pf CaM (Plasmodium falciparum, UniProt P62203).
T1 construct: properties of the whole protein can be explored with differential scanning calorimetry; made in house; host or cells: E coli
Put plainly: biochemical. In kind it is binding. The following applies: K d, ITC, 25°C, 1 mmol/L CaCl2, one set of sites model. The text has this:
Titration curves were fitted with the models provided by the built‐in Origin software (MicroCal.).

SMILES strings stand for the structures. Values joined by “and” are separate entries in the source; they are usually repeats but may differ in a detail not shown here. Equal entries are not always repeated.

For the compound `NCCCCCCNS(=O)(=O)c1cccc2c(Cl)cccc12` [W7, N‐(6‐aminohexyl)‐5‐chloro‐1‐naphthalenesulfonamide], the Kd is 9.4 µM and 10 µM.

Values taken from paper PMC7429351, “Comparison of ligand binding and conformational stability of human calmodulin with its homolog from the malaria parasite Plasmodium falciparum” (FASEB BioAdvances, 2020).
